Target: Nuclear receptor ROR-gamma (Homo sapiens, UniProt P51449)
Settings: 10 uM

Protein sequences, listed by entry. Tags and fused reporters are not part of them. Lines headed by an entry give the natural chain unless they say otherwise; changes in a name come on top.
UniProt P51449: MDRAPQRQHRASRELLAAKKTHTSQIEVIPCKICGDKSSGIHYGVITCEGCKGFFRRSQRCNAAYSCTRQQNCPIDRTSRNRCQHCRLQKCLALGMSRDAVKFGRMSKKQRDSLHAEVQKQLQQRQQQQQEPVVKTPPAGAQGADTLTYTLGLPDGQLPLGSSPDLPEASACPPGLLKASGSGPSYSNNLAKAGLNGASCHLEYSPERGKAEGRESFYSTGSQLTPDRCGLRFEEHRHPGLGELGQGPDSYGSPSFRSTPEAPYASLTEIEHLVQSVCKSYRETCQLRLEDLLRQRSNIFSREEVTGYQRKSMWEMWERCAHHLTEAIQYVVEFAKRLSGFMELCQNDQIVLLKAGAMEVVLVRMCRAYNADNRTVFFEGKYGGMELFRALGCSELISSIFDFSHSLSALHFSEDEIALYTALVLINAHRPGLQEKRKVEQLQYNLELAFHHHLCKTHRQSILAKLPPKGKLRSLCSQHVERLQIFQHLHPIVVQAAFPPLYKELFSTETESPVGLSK

Structure (SMILES)	inhibition
CC(=O)N1CCN(c2ccc(CN(C(=O)Cc3ccccc3)C3CCC3)c(F)c2)CC1	< 50%
CC(=O)N1CCN(c2ccc(CN(C(=O)c3ccccc3)C3CCC3)c(F)c2)CC1	< 50%
